Reference: article PMC9830440, “Simplified one-pot ^18F-labeling of biomolecules with in situ generated fluorothiophosphate synthons in high molar activity” (Theranostics, 2023)

Set-up: species or system mice
Details: mouse, in vivo, iv
Method: At 15 min post injection, the animals were anesthetized under 2% isoflurane and subjected to microPET/CT scans. Uptakes (%ID g-1) of major organs were calculated and reported as mean ± SD. Reconstruction of microPET images was performed with 3D OPMAP algorithm. 13.2 MicroPET/CT imaging with [18F]FTP-HSA Healthy mice received intravenous injection of [18F]FTP-HSA (3.70 MBq). Anesthetization was conducted with 2.5% isoflurane during preparation and 1.5% during scans. 60 min dynamic microPET/CT scans were acquired by an Inveon microPET/CT (Siemens, Germany). PET images reconstruction was performed with 3D OPMAP algorithm. Uptakes (%ID g-1) of major organs were calculated and reported as mean ± SD. 13.3 MicroPET/CT imaging with [ 18F]FTP-5F7 The MDA-MB -453 tumor bearing mice received an intravenous injection of [18F]FTP-5F7 (4.11 MBq). At 60 min post injection, the animals were anesthetized under 2% isoflurane and subjected to microPET/CT scans. Uptakes (%ID g-1) of major organs were calculated and reported as mean ± SD. Reconstruction of PET images was performed with 3D OPMAP algorithm. […]

In the case of “[^18F]FTP-HSA: human serum albumin labeled via [^18F]FTP-NHS”, the “radioactivity in the skeleton” value is reported as “no apparent radioactivity”.
